The source of these data is ChEMBL document CHEMBL4138316, “Optimization of Isothiazolo[4,3- b]pyridine-Based Inhibitors of Cyclin G Associated Kinase (GAK) with Broad-Spectrum Antiviral Activity” (J Med Chem, 2018).

Usually CC50 stands for the concentration that lowers cell viability or growth by half.

Molecules are shown by their SMILES.

The series deals with Huh-7. In words: Cytotoxicity against human HuH7 cells after 48 hrs by Alamar Blue assay. The conditions noted are these: huh-7, 48 h. In kind it is cell-based. (The colour change of resazurin is a common sign of viable cells or microbes.)

`COc1cc(-c2cnc3c(N4CCOCC4)snc3c2)ccc1N`: the CC50 turned out to be 17 µM.
